From publication PMC6599006, “Rational design using sequence information only produces a peptide that binds to the intrinsically disordered region of p53” (Scientific Reports, 2019)

Molecular target: CT peptide (residues 367–393 of human p53) labeled with FAM at the N-terminus (human) (UniProt P04637)
Experiment: fluorescence polarisation; fluorescence anisotropy; nonlabeled peptide titrated into 5 nM FAM-labeled CT peptide; 25 °C; 20 mM HEPES, 0.5 mM EDTA, 1 mM DTT, 0.2 mg/mL BSA, pH 7.9; in the absence of salt; apparent dissociation constant, one by one binding fit

Kd: 270 µM
Substance: Wmot2 (266–280) (peptide)
